Measured values reported in patent publication EP4682156A1, “LINKER AND DRUG CONJUGATE USING SAME, AND ANTIBODY-DRUG CONJUGATE AND USE THEREOF” (Shanghai Affinity Biopharmaceutical Co., Ltd., priority 2023, dated 2024).

Test system: Human Fibrosarcoma
Experiment: Drug efficacy study of drug conjugates on human fibrosarcoma tumor model
Type: in vivo, Nude mice
Details: 5 µmol/kg (1/10 MTD) once a week for 3 weeks

Substance: DXd
- Anti-tumor rate% Day 20: 80%
- Tumor volume(mm^3) Day 20: 200 mm^3
